Measurements published in patent US20030077798.

Target: prephosphorylated SGSG-linked CREB peptide

Row | Protein | Mean Specific Activity cpm/µg
1 | truncated GSK3β polypeptide 557 (protein) MEYMPMEGGGMSGRPRTTSFAESCKPVQQPSAFGSMKVSRDKDGSKVTTVVATPGQGPDRPQEVSYTDTKVIGNGSFGVVYQAKLCDSGELVAIKKVLQDKRFKNRELQIMRKLDHCNIVRLRYFFYSSGEKKDEVYLNLVLDYVPETVYRVARHYSRAKQTLPVIYVKLYMYQLFRSLAYIHSFGICHRDIKPQNLLLDPDTAVLKLCDFGSAKQLVRGEPNVSYICSRYYRAPELIFGATDYTSSIDVWSAGCVLAELLLGQPIFPGDSGVDQLVEIIKVLGTPTREQIREMNPNYTEFKFPQIKAHPWTKVFRPRTPPEAIALCSRLLEYTPTARLTPLEACAHSFFDELRDPNVKHPNGRDTPALFNFTTQELSSNPPLATILIPPHARI | 4.3e+07 cpm/µg
2 | GSK3β polypeptide 524 (protein) EYMPMEGGGMSGRPRTTSFAESCKPVQQPSAFGSMKVSRDKDGSKVTTVVATPGQGPDRPQEVSYTDTKVIGNGSFGVVYQAKLCDSGELVAIKKVLQDKRFKNRELQIMRKLDHCNIVRLRYFFYSSGEKKDEVYLNLVLDYVPETVYRVARHYSRAKQTLPVIYVKLYMYQLFRSLAYIHSFGICHRDIKPQNLLLDPDTAVLKLCDFGSAKQLVRGEPNVSYICSRYYRAPELIFGATDYTSSIDVWSAGCVLAELLLGQPIFPGDSGVDQLVEIIKVLGTPTREQIREMNPNYTEFKFPQIKAHPWTKVFRPRTPPEAIALCSRLLEYTPTARLTPLEACAHSFFDELRDPNVKHPNGRDTPALFNFTTQELSSNPPLATILIPPHARIQAAASTPTNATAASDANTGDRGQTNNAASASASNST | 2.2e+07 cpm/µg
